{
  "source": "paper PMC4929566",
  "about": "“The metabolome of [2-^14C](−)-epicatechin in humans: implications for the assessment of efficacy, safety, and mechanisms of action of polyphenolic bioactives” (Scientific Reports, 2016)",
  "test": "Metabolite profiling and quantification in urine (HPLC-MS2 with on-line radioactivity detector)",
  "assay_type": "in vivo, humans",
  "conditions": "human, oral 207 μmol 14C-EC, mean ± SEM n=8",
  "protocol": "The study was a single-center, open-label, and non-randomized study with two distinct elements: a run-in phase to establish a more defined dietary background of dietary flavanols and procyanidins and the subsequent ^14C-EC ADME study (Fig. 1B). Participants (n = 12) were enrolled in the run-in phase (day –17 to day –4) and asked to supplement their daily diet for 14 days with a commercially available flavanol-containing cocoa-based drink (250 mg cocoa flavanols; 40 mg of EC). This was followed by a 4-day period (day –4 to 0) of a low-flavanol diet. One day (study day -1) prior to the initialization of the ^14C-EC ADME study, all eligible participants were accommodated under controlled conditions at a metabolic research facility (Covance Clinical Pharmacology Inc., Wisconsin) until completion of the study. Based on the compliance of the first part of the study, 8 participants were selected to participate in the ^14C-EC ADME study. During the ^14C-EC ADME study (Fig. 1B.), volunteers received a low-flavanol, standardized high-fiber diet, and were encouraged to maintain an adequate level of hydration (water ad libitum). Volunteers were asked to fast for 8 h before the initiation of the study and for at least 4 h after the intake of the ^14C-EC test drink (water ad libitum). Venous blood samples were taken using Vacutainer collection tubes, containing potassium EDTA at 0 h (just prior to ^14C-EC ingestion), and at 0.25, 0.5, 1, 1.5, 2, 2.5, 3, 4, 6, 8, 10, 12, 16, 24, 36, and 48 h after test drink consumption. Plasma was obtained by whole blood centrifugation at 2000 × g for 15 min at 5 °C, separated into aliquots and stored at −80 °C until analysis. All urine and feces from the time just prior to the consumption of the test drink were collected at different time intervals for radioactivity and metabolite profiling. Clinical parameters and laboratory evaluations of participants were assessed at screening, on study day –1, and after completing the study, as detailed in Supplementary Methods.\nSamples were processed as described previously[18] and analyzed by HPLC-MS^2 in conjunction with an on-line HPLC-radioactivity monitor as described in SI Materials and Methods. Identification of metabolites involved comparing the retention time with authentic standards and MS^2 fragmentation patterns (Supplementary Methods). Quantification of metabolites in urine was based on HPLC radioactivity peak area (limit of quantification: 10^3 dpm). Due to the low levels of radioactivity, quantification in plasma was based on targeted HPLC-MS^2 using standard curves obtained with authentic standards (Supplementary Methods).\nHPLC-MS identifications of radiolabeled [2-14C](−)-epicatechin metabolites in urine Urine was analyzed with radioactivity and mass spectrometry (MS) detection using a 250 mm x 4.6 mm i.d. 5 µm Luna Phenyl-Hexyl column (Phenomenex, Macclesfield, UK) […]\nformic acid. Metabolite identification was performed by 1) co-chromatography of metabolites with reference compounds and a comparison of their MS fragmentation patterns 2, 2) by comparing m/z fragmentation patterns with earlier in-house observed […]\npatterns to databases of metabolites reported in earlier polyphenol feeding studies5-7. […]",
  "data": [
    {"substance": "5-(Phenyl)-γ-valerolactone-sulfate-O-glucuronide-I", "values": [
      {"measurement": "Metabolite present in urine, collection period 0–48 h", "value": "1.6 ± 0.7", "unit": "μ mol"},
      {"measurement": "Metabolite present in urine, collection period 0–4 h", "setting": "– = not detected", "value": "0.1 ± 0.1", "unit": "μ mol"},
      {"measurement": "Metabolite present in urine, collection period 4–8 h", "setting": "– = not detected", "value": "0.9 ± 0.8", "unit": "μ mol"},
      {"measurement": "Metabolite present in urine, collection period 8–12 h", "setting": "– = not detected", "value": "0.2 ± 0.2", "unit": "μ mol"},
      {"measurement": "Metabolite present in urine, collection period 12–24 h", "setting": "– = not detected", "value": "0.4 ± 0.3", "unit": "μ mol"}
    ]}
  ]
}
